Measurements published in BindingDB's records for 1846919.

Amino acid sequences for entries named in this document (tags omitted).
UniProt P97266, whole entry, looked up: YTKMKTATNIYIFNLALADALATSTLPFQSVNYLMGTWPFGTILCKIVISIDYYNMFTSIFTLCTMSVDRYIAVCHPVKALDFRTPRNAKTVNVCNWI

Target: Mu-type opioid receptor (Cavia porcellus, UniProt P97266)
Experiment: ChEBML_146264
Procedure: Compound was evaluated for the opioid receptor mu affinity determined with [3H][D-Ala2-MePhe4-Gly-ol5]-enkephalin (DAGOL) in the presence of excess unlabeled DAGOL to suppress mu binding.

## CN(C(=O)Cc1ccc(Cl)c(Cl)c1)[C@@H]1CCCC[C@H]1N1CCCC1
  Ki: 880 nM
